Earlier results on one substance are cited in PMC11322411.

The target in series [1] is SMO pCT pCT (Mus musculus) (UniProt P56726). In words: SPR. The settings on record: cited from earlier work.
Series [2] has as its target SMO PKI motif peptide PKI motif (Mus musculus) (UniProt P56726). The settings on record: cited from earlier work.

Take PKA-C (from UniProt P05132): the Kd (usually the free concentration of one partner at which half of the binding sites on the other are occupied at equilibrium, for simple one-to-one binding) in series [1] is 752 nM; in series [2] it was 923 nM.
